Patent US7109214B2, “Substituted cyclopentene compounds” (Grunenthal GmbH, priority 2004, dated 2006)

Biological target: T1, CGRP1 receptors (Cavia porcellus, UniProt H0UV86+Q8R4C6)
T1 sequence (H0UV86 23-464): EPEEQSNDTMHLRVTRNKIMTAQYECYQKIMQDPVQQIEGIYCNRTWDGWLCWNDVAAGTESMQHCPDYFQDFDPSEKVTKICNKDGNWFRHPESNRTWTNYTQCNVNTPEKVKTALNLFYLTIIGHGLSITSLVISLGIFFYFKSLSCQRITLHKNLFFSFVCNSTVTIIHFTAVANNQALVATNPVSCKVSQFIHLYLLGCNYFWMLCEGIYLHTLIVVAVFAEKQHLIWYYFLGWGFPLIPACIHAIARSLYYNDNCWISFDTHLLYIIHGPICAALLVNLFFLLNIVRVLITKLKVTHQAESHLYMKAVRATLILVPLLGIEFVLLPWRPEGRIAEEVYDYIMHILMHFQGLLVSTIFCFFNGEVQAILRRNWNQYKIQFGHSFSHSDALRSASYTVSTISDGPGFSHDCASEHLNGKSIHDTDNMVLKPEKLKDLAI
T1 sequence (Q8R4C6 27-148): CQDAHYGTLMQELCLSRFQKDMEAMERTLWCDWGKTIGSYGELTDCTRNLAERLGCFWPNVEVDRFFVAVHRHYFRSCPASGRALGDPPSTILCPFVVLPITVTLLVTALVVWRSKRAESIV
Test: CGRP receptor affinity on isolated, spontaneously beating guinea pig atrium
Conditions: in the presence of vehicle solution
Experimental: J. Physiol. Pharmacol. 75: 671–6,1997. The corresponding literature description is hereby introduced as a reference and is deemed to be part of the disclosure.
The exposure time for each concentration level is 2 minutes.
The validation and investigation of the substituted cyclopentene compounds according to the invention for their antagonistic action proceeded in accordance with the above-described method.

Increase in frequency of beating of the isolated atria: approx. 35%
Substance: h-α-CGRP: human α-CGRP, agonist that increases the frequency of beating of guinea pig atria [reference compound]
